# From PubChem BioAssay AID651965 (National Center for Advancing Translational Sciences (NCATS), 2013)
# The chains behind the UniProt entries cited, without tags or fusion partners.
# UniProt P80244, whole entry: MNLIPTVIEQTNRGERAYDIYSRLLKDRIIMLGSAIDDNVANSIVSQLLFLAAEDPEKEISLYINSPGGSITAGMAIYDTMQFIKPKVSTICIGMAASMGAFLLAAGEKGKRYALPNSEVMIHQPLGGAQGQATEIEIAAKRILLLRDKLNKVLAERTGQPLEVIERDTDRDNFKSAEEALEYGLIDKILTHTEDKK
# The entries are a selection whose mix differs from that of the whole data set. Results filed as inconclusive are left out. Some structures show a salt or complex split into parts, the way the source records it. Active and inactive are the calls of the source. Calls come from the whole dose curve; as a rule, active = well fitted falling curve with a large enough effect; inconclusive = small, poorly fitted or top-dose-only effect; inactive = no such curve, though single readings can be large or run the other way.
# Biological target: ATP-dependent Clp protease proteolytic subunit (Bacillus subtilis (strain 168)) (UniProt P80244)
# Assay: qHTS Assay for Activators of ClpP; note: the source files actives as falling curves though it sought activators and does not explain the sign; nearly all actives have a fitted effect of over 65% in size
# Conditions: purified B. subtilis ClpP, FRET peptide cleavage, 20 min; series mostly up to 57.5 µM; activity change, negative = active: at the top concentration
# Potency is the fitted concentration of half-maximal effect.
SMILES,"activity change, negative = active",Potency
CCC(c1nnnn1C1CCCC1)N1CCC(n2c(=O)[nH]c3ccccc32)CC1 (stereo not given),inactive: -0.388%,–
CC(C)(C)OC(=O)N1CCC(N(C(=O)c2ccccc2)c2ccc(F)cc2)CC1,inactive: 0.942%,–
O=C(NCC1(N2CCCCC2)CCCCC1)c1ccc(=O)[nH]c1,inactive: -0.307%,–
CCCCn1nnnc1C(c1cccs1)N1CCC(n2c(=O)[nH]c3ccccc32)CC1 (stereo not given),inactive: -2.81%,–
CCCCn1nnnc1C(CC)N1CCC(n2c(=O)[nH]c3ccccc32)CC1 (stereo not given),inactive: 0.823%,–
O=C(NCC1(N2CCCCC2)CCCCC1)c1cccs1,inactive: -3.57%,–
Cc1cccc(NC2(C#N)CCN(Cc3ccccc3)CC2)c1,inactive: -12.4%,–
O=c1[nH]c2ccccc2n1C1CCN(C(c2ccccc2OC(F)(F)F)c2nnnn2C2CCCCC2)CC1 (stereo not given),inactive: 1.77%,–
O=C(NCC1(N2CCOCC2)CCCCC1)c1cc2ccccc2o1,inactive: -10.9%,–
O=C(OC1CN2CCC1CC2)C1c2ccccc2Oc2ccccc21 (stereo not given),inactive: -10.2%,–
O=c1[nH]c2ccccc2n1C1CCN(C(c2cc3ccccc3o2)c2nnnn2C2CCCCC2)CC1 (stereo not given),inactive: 0.322%,–
O=C(NCC1(N2CCCCC2)CCCCC1)c1ccc(Cl)s1,inactive: 0.978%,–
COc1ccc(Cl)cc1C(=O)NCC1(N2CCOCC2)CCCCC1,inactive: 0.427%,–
CCOC(=O)N1CCC(Nc2ccc(OC)cc2)CC1,inactive: -6.12%,–
CCCCn1nnnc1C(c1ccc(OC)cc1)N1CCC(n2c(=O)[nH]c3ccccc32)CC1 (stereo not given),inactive: -1.79%,–
CC(C)(C)n1nnnc1C(c1ccccc1)N1CCC(n2c(=O)[nH]c3ccccc32)CC1 (stereo not given),inactive: 2.05%,–
O=C(NCC1(N2CCOCC2)CCCCC1)c1ccc(Cl)cc1,inactive: 4.01%,–
O=C1CCN(Cc2ccccc2)CC1,inactive: 0.888%,–
CCOc1ccc(C)cc1CN(CCCl)CCCl,inactive: -0.784%,–
COc1ccccc1C(=O)NCC1(N2CCOCC2)CCCCC1,inactive: -1.95%,–
CCCCn1nnnc1C(c1cc2ccccc2o1)N1CCC(n2c(=O)[nH]c3ccccc32)CC1 (stereo not given),inactive: 2.3%,–
CCCCOc1ccc(C(=O)NCC2(N3CCOCC3)CCCCC2)cc1,inactive: 0.353%,–
COc1ccc(NC2CCN(CCc3ccccc3)CC2)c(OC)c1,inactive: -4.72%,–
CCOC(=O)N1CCC(Nc2ccc(F)cc2)CC1,inactive: -6.31%,–
O=c1[nH]c2ccccc2n1C1CCN(C(c2ccccc2)c2nnnn2C2CCCCC2)CC1 (stereo not given),inactive: 0.388%,–
CCOC(=O)N1CCC(Nc2cccc(C)c2)CC1,inactive: 1.2%,–
O=c1[nH]c2ccccc2n1C1CCN(C(c2cccc3ccccc23)c2nnnn2C2CCCC2)CC1 (stereo not given),inactive: -1.68%,–

SMILES,"activity change, negative = active",Potency
CC(C)(C)n1nnnc1C(c1ccccc1OC(F)(F)F)N1CCC(n2c(=O)[nH]c3ccccc32)CC1 (stereo not given),inactive: 0.134%,–
CCN1CCC(Nc2ccc(Cl)cc2)CC1,inactive: -0.358%,–
N#CC1(Nc2ccccc2)CCN(CCc2ccccc2)CC1,inactive: 0.815%,–
O=c1[nH]c2ccccc2n1C1CCN(C(c2ccccc2OC(F)(F)F)c2nnnn2C2CCCC2)CC1 (stereo not given),inactive: 3.11%,–
CSc1ccc(C(=O)NCC2(N3CCOCC3)CCCCC2)cc1,inactive: 1.6%,–
CCOc1ccc(C(=O)NCC2(N3CCOCC3)CCCCC2)cc1,inactive: -0.387%,–
O=C(NCC1(N2CCCCC2)CCCCC1)c1cccc([N+](=O)[O-])c1,inactive: -2.71%,–
CCCOc1cccc(C(=O)NCC2(N3CCOCC3)CCCCC2)c1,inactive: -1.93%,–
O=C(NCC1(N2CCOCC2)CCCCC1)c1cc(=O)[nH]c2ccccc12,inactive: -6.49%,–
CCCCn1nnnc1C(c1cccc2ccccc12)N1CCC(n2c(=O)[nH]c3ccccc32)CC1 (stereo not given),inactive: -1.86%,–
COc1ccc(NC2CCN(C(=O)OC(C)(C)C)CC2)cc1,inactive: -3.11%,–
CC(C)c1ccc(C(=O)NCC2(N3CCOCC3)CCCCC2)cc1,inactive: 1.48%,–
CCCCn1nnnc1C(c1ccccc1OC(F)(F)F)N1CCC(n2c(=O)[nH]c3ccccc32)CC1 (stereo not given),inactive: 4.49%,–
O=[N+]([O-])c1cc([N+](=O)[O-])c(OC2CCCCC2O)c([N+](=O)[O-])c1 (stereo not given),inactive: -10.7%,–
CN(C)c1cccc(C(=O)NCC2(N3CCCCC3)CCCCC2)c1,inactive: 0.845%,–
COc1cc(OC)c(C(=O)NCC2(N(C)C)CCCCC2)cc1OC,inactive: 3.79%,–
CCC(c1nnnn1C(C)(C)C)N1CCC(n2c(=O)[nH]c3ccccc32)CC1 (stereo not given),inactive: 0.678%,–
O=C(NCC1(N2CCOCC2)CCCCC1)c1cc(F)c(F)cc1Cl,inactive: 0.364%,–
CCN(CC)CCCNc1ccccc1[N+](=O)[O-].O=[N+]([O-])c1cc([N+](=O)[O-])c(O)c([N+](=O)[O-])c1,inactive: 0.697%,–
CCCCn1nnnc1C(c1ccnc2ccccc12)N1CCC(n2c(=O)[nH]c3ccccc32)CC1 (stereo not given),inactive: 1.68%,–
O=C(NCC1(N2CCCCC2)CCCCC1)c1cncc(Br)c1,inactive: -2.61%,–
COc1ccc2c(c1O)-c1c(O)c(OC)cc3c1[C@H](C2)[N+](C)(C)CC3.O=[N+]([O-])c1cc([N+](=O)[O-])c([O-])c([N+](=O)[O-])c1[O-],inactive: 3.1%,–
O=[N+]([O-])c1cc([N+](=O)[O-])c(Nc2ccc(Cl)cc2)c([N+](=O)[O-])c1,inactive: -0.605%,–
COc1ccc(C(c2nnnn2C2CCCC2)N2CCC(n3c(=O)[nH]c4ccccc43)CC2)cc1 (stereo not given),inactive: -0.287%,–
Cc1ccc(C(=O)NCC2(N(C)C)CCCCC2)o1,inactive: -0.379%,–
CCCCOc1ccccc1C(=O)NCC1(N2CCOCC2)CCCCC1,inactive: -1.2%,–
O=C(NCC1(N2CCOCC2)CCCCC1)c1ccccc1Br,inactive: -0.416%,–

SMILES,"activity change, negative = active",Potency
CCCCn1nnnc1C(c1ccccc1)N1CCC(n2c(=O)[nH]c3ccccc32)CC1 (stereo not given),inactive: 0.543%,–
COc1cc(C(=O)NCC2(N3CCOCC3)CCCCC2)cc(OC)c1C,inactive: -0.908%,–
O=C(NCC1(N2CCOCC2)CCCCC1)c1cc(Br)ccc1Cl,inactive: 2.14%,–
O=c1[nH]c2ccccc2n1C1CCN(C(c2cccs2)c2nnnn2C2CCCCC2)CC1 (stereo not given),inactive: 0.279%,–
O=Cc1ccc(N(CCCl)CCCl)cc1,inactive: 0.863%,–
COc1ccc(C(=O)NCC2(N3CCOCC3)CCCCC2)cc1OC,inactive: -3.57%,–
O=c1[nH]c2ccccc2n1C1CCN(C(c2ccnc3ccccc23)c2nnnn2C2CCCC2)CC1 (stereo not given),inactive: -0.144%,–
COc1cccc(C(c2nnnn2C(C)(C)C)N2CCC(n3c(=O)[nH]c4ccccc43)CC2)c1OC (stereo not given),inactive: -1.99%,–
CCOC(=O)N1CCC(Nc2ccc(C)cc2)CC1,inactive: -1.53%,–
N/C(=N\O)c1c(N)no[n+]1[O-],inactive: 0.701%,–
O=C(OC1CN2CCC1CC2)C1c2ccccc2C=Cc2ccccc21 (stereo not given),–,active: 11.2 µM
O=C(O)c1cccc(Nc2c([N+](=O)[O-])cc([N+](=O)[O-])cc2[N+](=O)[O-])c1,inactive: 0.949%,–
O=c1[nH]c2ccccc2n1C1CCN(C(c2cccs2)c2nnnn2C2CCCC2)CC1 (stereo not given),inactive: -0.778%,–
CCCCn1nnnc1C(c1cccc(OC)c1OC)N1CCC(n2c(=O)[nH]c3ccccc32)CC1 (stereo not given),inactive: 1.83%,–
O=C(NCC1(N2CCOCC2)CCCCC1)c1ccccc1[N+](=O)[O-],inactive: 0.507%,–
O=C(NCC1(N2CCOCC2)CCCCC1)c1ccc([N+](=O)[O-])cc1,inactive: 2.34%,–
CCOC(=O)C(CC)C1=NC(C)(C)Cc2ccccc21.O=[N+]([O-])c1cc([N+](=O)[O-])c(O)c([N+](=O)[O-])c1 (stereo not given),inactive: 0.875%,–
CN(C)C1(CNC(=O)c2cccc(C#N)c2)CCCCC1,inactive: 1.66%,–
c1ccc(CN2CCC(Nc3ccccc3)CC2)cc1,inactive: -1.58%,–
O=c1[nH]c2ccccc2n1C1CCN(C(c2ccccc2)c2nnnn2C2CCCC2)CC1 (stereo not given),inactive: -4.2%,–
CCCN1CCC(Nc2cc(OC)cc(OC)c2)CC1,inactive: -0.0839%,–
Cc1cc(N(CCCl)CCCl)ccc1C=O,inactive: -1.11%,–
O=C(NCC1(N2CCOCC2)CCCCC1)c1ccccc1,inactive: -2.92%,–
CC(C)(C)n1nnnc1C(c1cccc2ccccc12)N1CCC(n2c(=O)[nH]c3ccccc32)CC1 (stereo not given),inactive: -1.19%,–
COc1cccc(C(c2nnnn2C2CCCCC2)N2CCC(n3c(=O)[nH]c4ccccc43)CC2)c1OC (stereo not given),inactive: 1.11%,–
CN(C)C1(CNC(=O)c2ccc(C(C)(C)C)cc2)CCCCC1,inactive: 1.1%,–
CCC(c1nnnn1C1CCCCC1)N1CCC(n2c(=O)[nH]c3ccccc32)CC1 (stereo not given),inactive: -4.68%,–

SMILES,"activity change, negative = active",Potency
O=c1[nH]c2ccccc2n1C1CCN(C(c2ccnc3ccccc23)c2nnnn2C2CCCCC2)CC1 (stereo not given),inactive: -7.7%,–
Cc1ccc(C(=O)NCC2(N3CCCCC3)CCCCC2)o1,inactive: 0.397%,–
Cc1ccc(Nc2c([N+](=O)[O-])cc([N+](=O)[O-])cc2[N+](=O)[O-])cc1,inactive: 2.38%,–
Fc1ccccc1NC1CCN(Cc2ccccc2)CC1,inactive: -4.11%,–
Cc1ccc(NC2(C#N)CCN(Cc3ccccc3)CC2)cc1,inactive: 0.831%,–
CC(C)(C)n1nnnc1C(c1ccnc2ccccc12)N1CCC(n2c(=O)[nH]c3ccccc32)CC1 (stereo not given),inactive: -7.66%,–
COc1ccc(C(c2nnnn2C2CCCCC2)N2CCC(n3c(=O)[nH]c4ccccc43)CC2)cc1 (stereo not given),inactive: -0.526%,–
CCN1CCC(Nc2cccc(F)c2)CC1,inactive: 0.291%,–
Cc1ccccc1C(=O)NCC1(N(C)C)CCCCC1,inactive: 0.66%,–
CC(C)(C)c1ccc(C(=O)NCC2(N3CCOCC3)CCCCC2)cc1,inactive: 0.502%,–
O=C(NCC1(N2CCCCC2)CCCCC1)c1ccco1,inactive: 1.8%,–
Cn1c(=O)[nH]cc(N(CCCl)CCCl)c1=O,inactive: 1.3%,–
CCOc1ncccc1C(=O)NCC1(N2CCOCC2)CCCCC1,inactive: -22%,–
CN1CCC(Nc2ccc(F)c(Cl)c2)CC1,inactive: 0.801%,–
O=C(O)C1(Nc2ccccc2)CCN(Cc2ccccc2)CC1,inactive: -2.17%,–
ClCCN(CCCl)c1ccc(C=C2C=CC=C2)cc1,inactive: 1.37%,–
NN(c1ccccc1)C1CCN(CCc2ccccc2)CC1,inactive: 1.05%,–
ClCCN(CCCl)c1ccccc1,inactive: -1.35%,–
CCCOc1ccc(C(=O)NCC2(N(C)C)CCCCC2)cc1,inactive: -0.449%,–
O=c1[nH]c2ccccc2n1C1CCN(C(c2cc3ccccc3o2)c2nnnn2C2CCCC2)CC1 (stereo not given),inactive: 0.104%,–
COc1cc(C(=O)NCC2(N3CCOCC3)CCCCC2)cc(OC)c1OC,inactive: -0.395%,–
COc1cccc(C(c2nnnn2C2CCCC2)N2CCC(n3c(=O)[nH]c4ccccc43)CC2)c1OC (stereo not given),inactive: -0.141%,–
CCC(CO)(C(=O)OC1CN2CCC1CC2)c1ccccc1 (stereo not given),inactive: -4.44%,–
CN1CCC(Nc2ccc(Cl)cc2)CC1,inactive: -0.0481%,–
